US11357851B2, “Uses of myostatin antagonists, combinations containing them and uses thereof” (Novartis AG, priority 2015, dated 2022)

Amino acid sequences for entries named in this document (tags omitted). Residues count along the entry.
UniProt Q13705, 19-512: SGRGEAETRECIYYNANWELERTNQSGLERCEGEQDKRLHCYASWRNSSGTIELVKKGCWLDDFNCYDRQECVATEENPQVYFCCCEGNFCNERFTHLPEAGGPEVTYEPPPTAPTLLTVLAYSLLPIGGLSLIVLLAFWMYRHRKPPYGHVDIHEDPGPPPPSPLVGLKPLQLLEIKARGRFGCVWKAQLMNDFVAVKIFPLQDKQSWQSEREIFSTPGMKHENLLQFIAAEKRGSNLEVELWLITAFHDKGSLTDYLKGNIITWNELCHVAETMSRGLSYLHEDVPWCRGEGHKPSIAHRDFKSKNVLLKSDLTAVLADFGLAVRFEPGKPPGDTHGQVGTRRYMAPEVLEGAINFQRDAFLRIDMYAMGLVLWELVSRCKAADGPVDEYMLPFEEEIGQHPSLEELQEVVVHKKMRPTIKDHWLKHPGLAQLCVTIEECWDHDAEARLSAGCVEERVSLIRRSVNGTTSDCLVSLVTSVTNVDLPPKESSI
UniProt P27037, 20-513: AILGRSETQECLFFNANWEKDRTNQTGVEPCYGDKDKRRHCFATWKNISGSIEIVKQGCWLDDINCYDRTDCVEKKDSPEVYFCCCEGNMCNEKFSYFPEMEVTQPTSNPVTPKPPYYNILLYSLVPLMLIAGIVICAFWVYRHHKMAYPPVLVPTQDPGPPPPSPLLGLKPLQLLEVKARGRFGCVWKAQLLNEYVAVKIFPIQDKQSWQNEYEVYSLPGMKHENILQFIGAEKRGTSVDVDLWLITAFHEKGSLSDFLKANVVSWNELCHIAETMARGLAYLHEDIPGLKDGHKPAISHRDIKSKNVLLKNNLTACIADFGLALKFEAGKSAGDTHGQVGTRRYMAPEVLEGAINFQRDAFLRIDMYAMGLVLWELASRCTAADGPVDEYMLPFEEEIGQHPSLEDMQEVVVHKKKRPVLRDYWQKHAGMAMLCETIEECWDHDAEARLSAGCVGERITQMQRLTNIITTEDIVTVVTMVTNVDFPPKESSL

Tests used:
human ActRIIB = human ActRIIB (Homo sapiens, UniProt Q13705); experiment: Binding affinity of bimagrumab to human ActRIIB
human ActRIIA = human ActRIIA (Homo sapiens, UniProt P27037); experiment: Binding affinity of bimagrumab to human ActRIIA

Kd (human ActRIIB): 1.7 ± 0.3 pM | Kd (human ActRIIA): 434 ± 25 pM
Substance: Bimagrumab: fully human monoclonal antibody (modified IgG1, 234-235-Ala-Ala, λ2) binding activin receptor type II (ActRII)
